According to BindingDB's records for PubMed 6310078 (Pfizer, 1983):
pKi: −log10 of the molar value.

Protein sequences, listed by entry. Tags and fused reporters are not part of them.
UniProt P23977, whole entry: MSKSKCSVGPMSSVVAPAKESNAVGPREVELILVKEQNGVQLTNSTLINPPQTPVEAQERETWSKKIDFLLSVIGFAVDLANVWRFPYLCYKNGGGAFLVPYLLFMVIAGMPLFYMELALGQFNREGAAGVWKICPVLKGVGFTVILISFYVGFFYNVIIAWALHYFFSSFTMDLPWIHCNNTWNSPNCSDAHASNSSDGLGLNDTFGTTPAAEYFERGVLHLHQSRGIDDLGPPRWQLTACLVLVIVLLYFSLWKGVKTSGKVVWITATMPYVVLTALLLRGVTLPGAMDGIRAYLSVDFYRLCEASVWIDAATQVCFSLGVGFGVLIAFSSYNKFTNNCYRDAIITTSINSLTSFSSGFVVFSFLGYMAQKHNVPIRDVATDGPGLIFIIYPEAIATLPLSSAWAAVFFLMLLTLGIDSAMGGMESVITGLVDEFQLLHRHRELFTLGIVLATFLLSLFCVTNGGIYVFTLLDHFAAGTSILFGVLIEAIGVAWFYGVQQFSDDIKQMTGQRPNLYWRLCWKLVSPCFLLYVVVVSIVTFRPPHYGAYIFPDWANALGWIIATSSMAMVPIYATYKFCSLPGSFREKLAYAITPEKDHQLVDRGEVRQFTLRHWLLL
UniProt P31652, whole entry: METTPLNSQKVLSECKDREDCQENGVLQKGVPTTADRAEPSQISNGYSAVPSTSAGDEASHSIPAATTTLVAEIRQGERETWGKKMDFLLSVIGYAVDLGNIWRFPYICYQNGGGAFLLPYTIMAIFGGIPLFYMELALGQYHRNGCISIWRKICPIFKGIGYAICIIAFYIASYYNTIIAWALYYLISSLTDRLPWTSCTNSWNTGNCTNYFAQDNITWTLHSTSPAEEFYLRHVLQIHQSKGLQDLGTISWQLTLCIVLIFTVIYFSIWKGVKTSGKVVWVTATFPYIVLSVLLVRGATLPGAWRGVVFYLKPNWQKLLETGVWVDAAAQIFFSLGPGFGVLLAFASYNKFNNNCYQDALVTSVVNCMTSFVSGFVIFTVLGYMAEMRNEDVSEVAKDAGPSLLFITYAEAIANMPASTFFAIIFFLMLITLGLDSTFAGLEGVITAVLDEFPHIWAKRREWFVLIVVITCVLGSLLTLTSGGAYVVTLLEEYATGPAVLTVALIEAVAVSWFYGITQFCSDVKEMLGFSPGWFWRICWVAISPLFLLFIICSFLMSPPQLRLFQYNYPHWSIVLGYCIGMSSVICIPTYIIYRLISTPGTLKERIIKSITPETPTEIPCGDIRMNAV

Tests used:
[1] = target: Sodium-dependent dopamine transporter (Rattus norvegicus, UniProt P23977)
[2] = target: Sodium-dependent serotonin transporter (Rattus norvegicus, UniProt P31652)

| SMILES | pKi [1] | pKi [2] |
| --- | --- | --- |
| CN(C)CCCN1c2ccccc2CCc2ccccc21 | < 5.00 |  |
| CNCCC=C1c2ccccc2CCc2ccccc21 [NORTRIPTYLINE] |  | 5.77 |
